Measured values published in ChEMBL document CHEMBL4138316, “Optimization of Isothiazolo[4,3- b]pyridine-Based Inhibitors of Cyclin G Associated Kinase (GAK) with Broad-Spectrum Antiviral Activity” (J Med Chem, 2018).

Test system: Huh-7
Experiment: Cytotoxicity against human HuH7 cells after 48 hrs by Alamar Blue assay
Assay type: cell-based
Conditions: huh-7, 48 h

## COc1cc(-c2cnc3c(N4CCOCC4)snc3c2)ccc1N
  CC50: 17 µM
